Experimental data taken from patent US10045980B2, “Inhibitor of p38 map kinase” (RESPIVERT LTD, priority 2014, dated 2018).

The chains behind the UniProt entries cited, without tags or fusion partners. Residues count along the entry.
UniProt P08631, 22-526: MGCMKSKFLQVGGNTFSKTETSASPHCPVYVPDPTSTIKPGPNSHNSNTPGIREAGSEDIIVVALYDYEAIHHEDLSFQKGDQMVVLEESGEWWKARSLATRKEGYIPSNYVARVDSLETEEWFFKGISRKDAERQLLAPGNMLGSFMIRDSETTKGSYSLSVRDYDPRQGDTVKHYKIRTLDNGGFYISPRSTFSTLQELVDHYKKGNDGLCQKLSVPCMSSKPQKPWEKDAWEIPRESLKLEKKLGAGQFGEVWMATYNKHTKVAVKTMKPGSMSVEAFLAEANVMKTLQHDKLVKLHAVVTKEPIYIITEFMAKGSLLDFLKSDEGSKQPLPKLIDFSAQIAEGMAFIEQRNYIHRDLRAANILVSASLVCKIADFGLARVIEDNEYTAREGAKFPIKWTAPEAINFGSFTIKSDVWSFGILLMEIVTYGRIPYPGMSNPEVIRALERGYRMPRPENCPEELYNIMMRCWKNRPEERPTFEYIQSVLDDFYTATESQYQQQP

Biological target: T1, Hck (Homo sapiens, UniProt P08631)
T1 construct: purchased Life Technologies
Assay: Hck enzyme inhibition (Z-LYTE FRET)
Assay type: biochemical
Procedure: The enzyme inhibitory activities of the compound disclosed herein were determined by FRET using synthetic peptides labelled with both donor and acceptor fluorophores (Z-LYTE, Life Technologies, Paisley, UK).
The inhibitory activities of the compound of the invention against Hck, c-Src and Syk enzymes (Life Technologies) were evaluated in a similar fashion to that described hereinabove. The relevant enzyme (1000 ng/mL, 1400 ng/mL or 2000 ng/mL respectively, 2.5 μL) was incubated with the test compound (either 40 μg/mL, 12 μg/mL, 4 μg/mL, 1.2 μg/mL, 0.4 μg/mL, 0.12 μg/mL, 0.04 μg/mL, 0.012 μg/mL, 0.004 μg/mL or 0.0012 μg/mL, 2.5 μL each) for 2 h at RT. The FRET peptides (8 μM, 2.5 μL), and appropriate ATP solutions (2.5 μL, 800 μM for c-Src, and 60 μM ATP for HCK and Syk) were then added to the enzyme/compound mixtures and incubated for 1 h at RT. Development reagent (protease, 5 μL) was added for 1 h prior to detection in a fluorescence microplate reader (EnVision, Perkin Elmer).
In all cases, the site-specific protease cleaves non-phosphorylated peptide only and eliminates the FRET signal. Phosphorylation levels of each reaction were calculated using the ratio of coumarin emission (donor) over fluorescein emission (acceptor), for which low ratios indicate high phosphorylation and high ratios indicate low phosphorylation levels.

**Q.** `COCC(=O)Nc1cc(Oc2ccc(NC(=O)Nc3cc(C(C)(C)C)nn3-c3ccc(C)cc3)c3ccccc23)ccn1` [Reference Compound, N-(4-(4-(3-(3-tert-Butyl-1-p-tolyl-1H-pyrazol-5-yl)ureido)naphthalen-1-yloxy)pyridin-2-yl)-2-methoxyacetamide, reference compound] was tested. Which IC50 did it give?
**A.** 7 nM
